## AlphaSeq binding of Ab-14 light chain variants to a spike HR2 peptide

Source: Engelhart et al. 2022 (doi:10.1038/s41597-022-01779-4), MIT Lincoln Laboratory and A-Alpha Bio; data file from the FLAb repository.

Target peptide (SARS-CoV-2 spike, HR2 region): PDVDLGDISGINAS

Each scFv is VH, the linker GGGGSGGGGSGGGGS, VL, as in the parent Ab-14, and differs from it in the CDRs of the light chain only.
VH: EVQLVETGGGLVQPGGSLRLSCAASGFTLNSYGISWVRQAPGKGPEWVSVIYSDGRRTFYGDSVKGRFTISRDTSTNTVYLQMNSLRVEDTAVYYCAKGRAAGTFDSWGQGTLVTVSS
VL: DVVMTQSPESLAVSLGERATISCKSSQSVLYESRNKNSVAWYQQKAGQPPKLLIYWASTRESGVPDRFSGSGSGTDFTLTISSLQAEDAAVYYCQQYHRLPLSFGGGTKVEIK

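The library (AAYL50) carries one to three amino acid substitutions per variant, with no insertions or deletions. Affinity was read by AlphaSeq, a pooled yeast mating assay with surface-displayed partners. Binding brings cells together so that they mate, and sequencing counts the barcode pairs among the diploids. A regression on co-assayed BCL2-family reference pairs converts the normalised counts of each replicate to an apparent Kd. The assay was run in three technical replicates.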

Variants are written as CDR1, CDR2 and CDR3 of the light chain (limits as in the source). Parent: KSSQSVLYESRNKNSVA, WASTRES, QQYHRLPLS.
Values are apparent Kd, the geometric mean of the replicates that gave a signal; lower means stronger binding.
"nd" marks a missing value. The strain was present, yet no cells mated with the target were sequenced in any replicate, which points to weak or no binding.
As a blank, each scFv also met three strains without target: over library AAYL50, 18% of these pairings were detected, typically at 15 µM and seldom below 970 nM. The control count says in how many pairings with the empty strains this scFv gave a signal.
Parent in this assay: reference entry 4.4 nM, copy in this library 48 nM.

Kd (apparent) | replicates with signal | control signals | CDR-L1 | CDR-L2 | CDR-L3
13 µM | 1/3 | 3/9 | KSSQSVLYESRNKNSVA | WASTRHS | QQDHRLYLS
34 nM | 3/3 | 0/9 | KSSQSTLMESRNKNSVA | WASTRFS | QQYHRLPLS
5.3 nM | 3/3 | 2/9 | KSSQSVLYESVNKNSVA | WASTREK | QLYHRLPLS
330 nM | 3/3 | 3/9 | KSSQSVLYERRNKNSVA | EYSTRES | QQYHRLPLS
2.8 µM | 3/3 | 4/9 | KSSQSVLYESRSKNSVA | WAATRES | WQYHRLPLS
38 nM | 3/3 | 1/9 | KSSQSVLYESRNKNSVA | WANTRES | QQYHRPVLS
130 nM | 3/3 | 0/9 | KHSQSVLYESRNKNSVA | WASTRES | QQYHRLRLK
160 nM | 3/3 | 0/9 | KSSFSVLYESRNKNSVA | WAVTRYS | QQYHRLPLS
nd | 0/3 | 1/9 | KSLQSVLYESRNKNSVA | WASTREH | QQYHRDPLS
4.9 nM | 3/3 | 0/9 | KSSMCVNYESRNKNSVA | WASTRES | QQYHRLPLS
nd | 0/3 | 0/9 | KSSQSVLYESRNKNSVA | WASTRES | QLCHRLPLY
9.1 µM | 1/3 | 1/9 | TSSQSVLYESRNKGSVA | WARTRES | QQYHRLPLS
nd | 0/3 | 0/9 | KSSQSVLYESRNKNSSA | WNSTRES | SQYHRLPLS
nd | 0/3 | 0/9 | PSSQSCLYESRNKNSVA | WASTRES | QQYFRLPLS
2.8 µM | 3/3 | 1/9 | VSSQSVLYESRNKDSVA | WASTRES | QQYHRLPIS
nd | 0/3 | 0/9 | KSSVSVLYESRNKDSVA | WASTREF | QQYHRLPLS
170 nM | 3/3 | 2/9 | KSSQSVLYESRNKNSVA | HFSTRES | QQYERLPLS
1.0 µM | 1/3 | 0/9 | KSSQSVLYESRNKNRVA | WASTRES | QQYHRLPLE
nd | 0/3 | 0/9 | KSSQSVLYESRNHNSVA | WASTRES | QQHHRLPRS
170 nM | 3/3 | 5/9 | KSSQQVLYESRPKNSVA | FASTRES | QQYHRLPLS
9.8 µM | 2/3 | 5/9 | KSIQSVLYESRNKNEVA | WASTRES | QQYHRSPLS
nd | 0/3 | 3/9 | KSSQSVLDESRNKNSVA | WASTDES | QFYHRLPLS
96 nM | 3/3 | 0/9 | GSSQSVLIESRNKQSVA | WASTRES | QQYHRLPLS
nd | 0/3 | 2/9 | KLSQSVLYESRNKNSVA | WASTRES | QQYHWLALS
nd | 0/3 | 1/9 | KSSQSVLYESRNKNSVA | IADTRES | VQYHRLPLS
14 nM | 3/3 | 0/9 | KSSQSVLYESRNKNSVA | WASTRIS | QSYHRLRLS
38 nM | 3/3 | 3/9 | KGSQSVLYQSRNKNSVA | WASTRES | QQYHRGPLS
nd | 0/3 | 0/9 | KASQSVLYESRNKNSVA | WSSGRES | QQYHRLPLS
35 µM | 1/3 | 2/9 | KSSQSVLYESRNKNSVA | WASTRES | HQYHGQPLS
nd | 0/3 | 0/9 | KSSQSVLYCSRNKQSVA | WASTRES | QQYSRLPLS
2.6 nM | 3/3 | 2/9 | KSSQSVLYEWRNKNSVA | AASTRES | QQYHRLPLG
1.2 nM | 3/3 | 0/9 | ASSQSVLYESRNKNSVA | AASTREN | QQYHRLPLS
3.1 nM | 3/3 | 4/9 | KSSQSVWYESRNGNSVA | WASTREQ | QQYHRLPLS
490 nM | 3/3 | 4/9 | KGSQSVLYESRFKNSVA | WASTREC | QQYHRLPLS
5.5 nM | 3/3 | 2/9 | KSSQSVLYESNNKNSVA | WASTREA | QQYHRHPLS
nd | 0/3 | 1/9 | KSSQSVLYESRNKNSGA | WASMRES | QQYHRLPLS
250 nM | 3/3 | 4/9 | KSSGSVLYESRNKNSVA | FASTRES | QQTHRLPLS
140 nM | 3/3 | 3/9 | KSSQSVYYESRNKNSVC | WASTRES | QQYHRLPLS
17 µM | 3/3 | 1/9 | KSSQSVLYESRNKNSVA | WASTRES | LQFHRLPQS
12 µM | 2/3 | 3/9 | KSSQSFLYESRNKNSNM | WASTRES | QQYHRLPLS
nd | 0/3 | 0/9 | KSSQSVLYESRNKNSVE | WASTRGS | QQYHRPPLS
370 nM | 3/3 | 3/9 | KSSQSVLYESRNKNSLA | WASTRES | QQYARLPLY
nd | 0/3 | 1/9 | KSSQSVLYESRNKNNVW | WACTRES | QQYHRLPLS
17 µM | 3/3 | 1/9 | WSSQSVLYESRNKNSVA | WASTRES | QQYHRIPLS
570 nM | 3/3 | 5/9 | KSSQSVLYEWRNKNDVA | WASTRES | QQYHRLPLS
44 nM | 3/3 | 3/9 | KSSQSVLYESRNKNSVA | WASTRET | FQYHRPPLS
140 nM | 3/3 | 0/9 | KSSQSVLYESRNPNSVA | WAYTRES | QQYHRLPLS
13 µM | 1/3 | 0/9 | KSSQSVLYCSRNKNSVA | TASTRES | QQYHRLPGS
110 nM | 2/3 | 1/9 | GSSKSVLYESRNNNSVA | WASTRES | QQYHRLPLS
nd | 0/3 | 0/9 | KCSQSVLYESPNKNSVA | WASTRES | QRYHRLPLS
nd | 0/3 | 0/9 | KSSQSVLYELRMKNSVA | WASTRES | NQYHRLPLS
nd | 0/3 | 1/9 | ASSQSVLYESRNWNSVH | WASTRES | QQYHRLPLS
16 nM | 3/3 | 0/9 | KSSQSVLYESRNKNSLA | NASERES | QQYHRLPLS
98 nM | 3/3 | 0/9 | KASQSVLYESRNKNSVA | WASTRES | SQYHRLPLS
nd | 0/3 | 2/9 | KSSNSVLYESRNKNSVR | WASTFES | QQYHRLPLS
780 nM | 3/3 | 2/9 | KSSQHVLYEIRNKYSVA | WASTRES | QQYHRLPLS
14 nM | 3/3 | 4/9 | KSSQSVLYEPRNKNSVA | CASTRES | QQYHRLPLS
4.5 nM | 3/3 | 0/9 | KQSQSYLYESRNKNSVA | WASTRET | QQYHRLPLS
nd | 0/3 | 0/9 | KSSQSVLYESRNKNSIA | WASTREH | QQYHRLTLS
nd | 0/3 | 0/9 | KSSQSVLYESRNKNSWA | WCTTRES | QQYHRLPLS
2.5 µM | 3/3 | 0/9 | ESEQSVLYESRNKNSVA | WASTREQ | QQYHRLPLS
6.2 nM | 3/3 | 0/9 | KSSQSSLYESRMKNSVA | WASTRMS | QQYHRLPLS
nd | 0/3 | 1/9 | KSSQSVLYESHNKNSVA | WYSTRES | HQYHRLPLS
nd | 0/3 | 0/9 | KSSQSVLYESRNKNSVA | WALTRGS | QQYHRLPLD
240 µM | 2/3 | 3/9 | WSSQSVLYESRNKNIVA | WASTRES | QQYHRLQLS
250 µM | 1/3 | 0/9 | KSSQSVLYESRNKNSVA | WYSTGES | QQLHRLPLS
13 µM | 3/3 | 2/9 | KSSQSVLYESRNKNSVA | WACIRES | QQLHRLPLS
nd | 0/3 | 0/9 | KSQQSVQYESRNKNGVA | WASTRES | QQYHRLPLS
25 µM | 2/3 | 7/9 | KSSQSVLYQSRNKNSVA | WWSTRES | QQYHRLSLS
260 nM | 3/3 | 0/9 | KSSQSVLYESRNKNSVC | WASTRES | QQYHTLRLS
3.1 µM | 2/3 | 4/9 | KSSQSVLYESRNKNSVA | WMGTRES | QFYHRLPLS
13 nM | 3/3 | 8/9 | KSSQSVLYESRNKNSVA | WASTREV | QQYHRLSGS
580 nM | 3/3 | 1/9 | KASQSVLYEIRNKNSVA | WASHRES | QQYHRLPLS
33 µM | 1/3 | 1/9 | KSSQSVLYESRNKNGWA | WASTRIS | QQYHRLPLS
610 nM | 3/3 | 2/9 | KSSQSVLQMSRNKNSVA | WASTRES | QAYHRLPLS
5.7 µM | 2/3 | 3/9 | KSSQSVLYESRNKNSVA | WASTRES | QQVHINPLS
48 µM | 1/3 | 0/9 | KSSQSVLYESRNKNSVL | WASTRES | QQYHHLQLS

Picked from the list: the 11 lowest averages where every replicate gave a value.

CDR-L1,CDR-L2,CDR-L3,Kd (apparent),replicates with signal,control signals
ASSQSVLYESRNKNSVA,AASTREN,QQYHRLPLS,1.2 nM,3/3,0/9
KSSQSVLYEWRNKNSVA,AASTRES,QQYHRLPLG,2.6 nM,3/3,2/9
KSSQSVWYESRNGNSVA,WASTREQ,QQYHRLPLS,3.1 nM,3/3,4/9
KQSQSYLYESRNKNSVA,WASTRET,QQYHRLPLS,4.5 nM,3/3,0/9
KSSMCVNYESRNKNSVA,WASTRES,QQYHRLPLS,4.9 nM,3/3,0/9
KSSQSVLYESVNKNSVA,WASTREK,QLYHRLPLS,5.3 nM,3/3,2/9
KSSQSVLYESNNKNSVA,WASTREA,QQYHRHPLS,5.5 nM,3/3,2/9
KSSQSSLYESRMKNSVA,WASTRMS,QQYHRLPLS,6.2 nM,3/3,0/9
KSSQSVLYESRNKNSVA,WASTREV,QQYHRLSGS,13 nM,3/3,8/9
KSSQSVLYEPRNKNSVA,CASTRES,QQYHRLPLS,14 nM,3/3,4/9
KSSQSVLYESRNKNSVA,WASTRIS,QSYHRLRLS,14 nM,3/3,0/9